Read-outs that look alike come from different tables or passages of the source.
Test system: tumor in the left side of the neck

(^111In-DTPA-D-Phe^1)-octreotide [^111In-pentetreotide]
External Dose Accumulation (Infusion 1 (over 72 hr, 2.5 mCi/hr), 48 hr from initial infusion): 70 mR/hr | External Dose Accumulation (Infusion 1 (over 72 hr, 2.5 mCi/hr), 72 hr from initial infusion): 70 mR/hr | External Dose Accumulation (Infusion 2 (389.22 mCi total), 16 hr from initial infusion): 180 mR/hr | External Dose Accumulation (Infusion 2 (389.22 mCi total), 17 hr from initial infusion): 210 mR/hr | External Dose Accumulation (Infusion 2 (389.22 mCi total), 23 hr from initial infusion): 180 mR/hr | External Dose Accumulation (Infusion 2 (389.22 mCi total), 42 hr from initial infusion): 200 mR/hr | External Dose Accumulation (Infusion 2 (389.22 mCi total), 44 hr from initial infusion): 200 mR/hr | External Dose Accumulation (Infusion 2 (389.22 mCi total), 68 hr from initial infusion): 210 mR/hr | External Dose Accumulation (Infusion 2 (389.22 mCi total), 161 hr from initial infusion): 66 mR/hr | External Dose Accumulation (Infusion 3 (346.49 mCi total), 19 hr from initial infusion): 410 mR/hr | External Dose Accumulation (Infusion 3 (346.49 mCi total), 20 hr from initial infusion): 410 mR/hr | External Dose Accumulation (Infusion 3 (346.49 mCi total), 164 hr from initial infusion): 70 mR/hr
